US7638486B2, “Method for promoting hard tissue formation” (Acologix, Inc., priority 2005, dated 2009)

What was measured:
[1] = system: MC3T3-E1 subclone 4 cells; test: BMP-2 stimulated PGE2 production by MC3T3 cells (ELISA); format: cell-based, mouse; settings: suboptimal concentration of rhBMP-2 alone
Protocol: Methods: MC3T3-E1 subclone 4 cells are neonatal mouse derived calvarial preosteoblasts with fibroblast morphology. […] For this experiment the MC3T3 cells were plated 10^5 cells per well in 24 well plates in growth medium (alpha MEM+1 mM sodium pyruvate+10% fetal bovine serum (FBS)). After 24 hours of culture the media was removed and replaced with assay media (alphaMEM+1 mM sodium pyruvate+2% FBS) containing the test substances. Each test group utilized 4 wells. After incubation for a further 24 hours the media was removed and the levels of PGE2 were determined using an ELISA (R&D Systems).

dorsal muscle of mice = test: Ectopic bone formation in mouse dorsal muscle with implanted polymer; format: in vivo, ICR mice
Description: It has been known that BMP causes bone formation when administered or implanted in mammals when given. The activity can be enhanced when given in the appropriate delivery vehicle. […] With lower, suboptimal doses of rhBMP-2, the there is minimal or no bone formation.
Materials and Methods: Polymer pellets containing both BMP-2 and the peptide of SEQ ID No. 8 in the following amounts (see table below) were implanted in the dorsal subfascia of 4 week old ICR mice. The mice were sacrificed 3 weeks later and the newly formed bones were isolated for evaluation using soft X-ray radiograph and bone mineral density determination.

B1: BMP-2: recombinant human bone morphogenic protein-2 (rhBMP-2) (protein, UniProt P12643 283-396, looked up)
Bone morphogenetic protein 2: QAKHKQRKRLKSSCKRHPLYVDFSDVGWNDWIVAPPGYHAFYCHGECPFPLADHLNSTNHAIVQTLVNSVNSKIPKACCVPTELSAISMLYLDENEKVVLKNYQDMVVEGCGCR
[1]
  COX-2 or PGE2 upregulation by rhBMP-2 alone: marginally upregulated
Dorsal muscle of mice; 3 μg rhBMP-2 (suboptimal dose)
  Bone formation compared to a 5 μg dose: substantially less bone formation
Dorsal muscle of mice; 5 μg or higher amount of rhBMP-2 in PLA/PEG/DX polymer, mouse dorsal muscle
  Time until new bone tissue was locally formed: about 20 days
